Earlier results on 1 compound are cited in US20050137807A1, “Method of visualization of the ADME properties of chemical substances” (priority 2003, published 2005).

Converted amounts (≈) assume the structure as drawn.

The conditions of this series: water solubility, from the literature; cited from earlier work.

In general, Solubility refers to the dissolved amount per volume that the medium holds. Regarding `O=C(O)c1cc(/N=N/c2ccc(S(=O)(=O)Nc3ccccn3)cc2)ccc1O` [Sulfasalacine], the Solubility is 2.44 µg/mL (≈ 6.12 µM).
